Test results from patent publication US7256190B2, “Thiazole compounds useful as inhibitors of protein kinase” (Vertex Pharmaceuticals Incorporated, priority 2001, dated 2007).

Chains of the proteins cited; added tags and fusions are not shown.
UniProt P49841, whole entry: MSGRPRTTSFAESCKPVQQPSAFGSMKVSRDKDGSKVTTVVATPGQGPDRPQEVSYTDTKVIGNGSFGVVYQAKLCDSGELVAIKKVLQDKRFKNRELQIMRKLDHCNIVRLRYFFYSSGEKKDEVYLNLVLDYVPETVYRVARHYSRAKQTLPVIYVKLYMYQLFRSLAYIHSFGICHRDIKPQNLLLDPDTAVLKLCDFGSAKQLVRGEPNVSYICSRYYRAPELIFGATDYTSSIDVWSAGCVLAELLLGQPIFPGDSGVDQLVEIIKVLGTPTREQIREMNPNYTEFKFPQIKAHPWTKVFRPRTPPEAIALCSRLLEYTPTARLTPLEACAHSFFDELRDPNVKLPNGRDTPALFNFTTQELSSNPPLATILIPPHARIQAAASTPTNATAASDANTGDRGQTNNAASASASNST
UniProt O14965, whole entry: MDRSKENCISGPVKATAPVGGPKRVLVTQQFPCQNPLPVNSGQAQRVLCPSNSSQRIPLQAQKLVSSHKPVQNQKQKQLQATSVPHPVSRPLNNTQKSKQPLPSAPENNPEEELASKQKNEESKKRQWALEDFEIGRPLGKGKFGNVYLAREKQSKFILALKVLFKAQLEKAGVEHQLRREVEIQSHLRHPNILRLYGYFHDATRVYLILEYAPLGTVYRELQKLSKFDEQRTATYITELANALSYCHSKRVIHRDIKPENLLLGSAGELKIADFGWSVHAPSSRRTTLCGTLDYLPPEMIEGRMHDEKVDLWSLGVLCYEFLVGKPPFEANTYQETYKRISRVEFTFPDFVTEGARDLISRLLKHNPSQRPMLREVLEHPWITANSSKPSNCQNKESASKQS

Assays:
GSK3-β (AA 1-420) = GSK3-β (AA 1-420) (Homo sapiens, UniProt P49841); assay: GSK-3 inhibition assay (coupled enzyme system); conditions: read-out: GSK3-β Activity (Ki); 10 μM ATP, 300 μM peptide, 60 nM GSK-3β, 30° C.
Procedure: Compounds were screened for their ability to inhibit GSK3-β (AA 1-420) activity using a standard coupled enzyme system (Fox et al. (1998) Protein Sci. 7, 2249). Reactions were carried out in a solution containing 100 mM HEPES (pH 7.5), 10 mM MgCl2, 25 mM NaCl, 300 μM NADH, 1 mM DTT and 1.5% DMSO. Final substrate concentrations in the assay were 10 μM ATP (Sigma Chemicals, St Louis, Mo.) and 300 μM peptide (HSSPHQS(PO3H2)EDEEE, American Peptide, Sunnyvale, Calif.). Reactions were carried out at 30° C. and 60 nM GSK-3β. Final concentrations of the components of the coupled enzyme system were 2.5 mM phosphoenolpyruvate, 300μM NADH, 30 μg/ml pyruvate kinase and 10 μg/ml lactate dehydrogenase.
An assay stock buffer solution was prepared containing all of the reagents listed above with the exception of ATP and the test compound of interest. 59 μl of the test reaction was placed in a 96 well ½-diameter plate (Corning, Corning, N.Y.) then treated with 1 μl of a 2 mM DMSO stock containing the test compound (final compound concentration 30 μM). The plate was incubated for ˜10 minutes at 30° C. then the reaction initiated by addition of 7 μl of ATP (final concentration 10 μM). Rates of reaction were obtained using a Molecular Devices Spectramax plate reader (Sunnyvale, Calif.) over a 5 minute read time at 30° C.
(§1) The compound numbers correspond to the compound numbers in Table 1.

Syk = Syk (Homo sapiens, UniProt P43405); assay: Syk inhibition assay (coupled enzyme assay); conditions: read-out: Syk Activity (IC50); 200 μM ATP, 4 μM poly Gly-Tyr peptide, 30° C.
Aurora2 = Aurora2 (Homo sapiens, UniProt O14965); assay: Aurora2 inhibition assay (coupled enzyme assay); conditions: read-out: Aurora2 Activity (IC50); 800 μM peptide LRRASLG, 70 nM Aurora2, 30° C.
Procedure: Compounds are screened in the following manner for their ability to inhibit Aurora2 using a standard coupled enzyme assay (Fox et al (1998). Protein Sci 7, 2246). To an assay stock buffer solution containing 0.1M HEPES 7.5, 10 mM MgCl2, 1 mM DTT, 25 mM NaCl, 2.5 mM prosphoenolpyruvate, […], […] pyruvate kinase, […] lactate dehydrogenase, […], and 800 μM peptide (LRRASLG, American Peptide, Sunnyvale, Calif.) is added a DMSO solution of a compound of the present invention to a final concentration of 30 μM. The resulting mixture is incubated at 30° C. for 10 minutes. The reaction was initiated by the addition of 10 μL of Aurora2 stock solution to give a final concentration of 70 nM in the assay. The rates of reaction are obtained by monitoring absorbance at 340 nm over a 5 minute read time at 30° C. using a BioRad Ultramark plate reader (Hercules, Calif.). The IC50 values are determined from the rate data as a function of inhibitor concentration.
as §1

Clc1cccc(Cl)c1CNc1cccc(Nc2nccc(-c3nccs3)n2)c1
Ki (GSK3-β (AA 1-420)): < 0.1 µM
IC50 (Syk): > 2 µM
IC50 (Aurora2): > 2 µM
